Experimental data from PubChem BioAssay AID463141 (The Scripps Research Institute Molecular Screening Center, 2010).
Only a part is listed here, and it is no random draw. Some salts or complexes appear as unconnected parts, following the source record. Activity calls are given as the source filed them.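 The calls were made as follows: active = activation above the mean of all tested compounds plus 3 SD (cut at about 21% in these data); inactive = the rest.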

Amino acid sequences for entries named in this document (tags omitted).
UniProt P42574, whole entry D9A/D28A/D175A: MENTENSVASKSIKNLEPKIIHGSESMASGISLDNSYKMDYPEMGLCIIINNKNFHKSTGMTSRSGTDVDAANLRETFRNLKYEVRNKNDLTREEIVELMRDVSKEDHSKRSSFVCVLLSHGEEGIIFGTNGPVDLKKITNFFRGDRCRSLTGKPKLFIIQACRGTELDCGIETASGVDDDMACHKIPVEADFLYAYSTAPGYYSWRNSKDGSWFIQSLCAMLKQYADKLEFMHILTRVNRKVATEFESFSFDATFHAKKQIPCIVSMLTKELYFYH

Biological target: Caspase-3 (Homo sapiens) (UniProt P42574)
Assay: procaspase-3 enzyme activation – biochemical, absorbance, PC-3 D3A mutant, single concentration, primary screen (AID 463141);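 also: 0% = DMSO alone and 100% = DMSO wells spiked with extra 5 µM PC-3 D3A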
Details: recombinant procaspase-3 D3A, Ac-DEVD-pNA absorbance 405 nm; at 8.5 µM; stronger effect = higher value

Structure (SMILES) | activation
CC(C)c1ccc(OP(C)(=O)Nc2ccc(SC(F)(F)F)cc2)cc1 (stereo unspecified) | inactive: 1.5%
CP(=O)(Nc1ccccc1F)Oc1ccccc1 (stereo unspecified) | inactive: 0.02%
COc1ccc2c(c1O)-c1c(O)c(OC)cc3c1[C@H](C2)[N+](C)(C)CC3.O=[N+]([O-])c1cc([N+](=O)[O-])c([O-])c([N+](=O)[O-])c1[O-] | inactive: 5.87%
O=C(OCCN1CCN(CCOCc2ccccc2)CC1)C(O)(c1ccccc1)c1ccccc1 | inactive: -3.8%
O=C(OC1CN2CCC1CC2)c1ccc([N+](=O)[O-])cc1 (stereo unspecified) | inactive: 0.01%
COc1ccc(OP(C)(=O)Nc2ccc(SC(F)(F)F)cc2)cc1 (stereo unspecified) | inactive: 0.98%
CCOC(=O)c1ccc(NP(C)(=O)Oc2ccc(F)cc2)cc1 (stereo unspecified) | inactive: -4.15%
O=[N+]([O-])c1cc([N+](=O)[O-])c(OC2CCCCC2O)c([N+](=O)[O-])c1 (stereo unspecified) | inactive: 1.88%
CCCCCOc1ccc(NP(C)(=O)Oc2ccc(Cl)cc2Cl)cc1 (stereo unspecified) | inactive: -2.85%
CP(=O)(Nc1ccccc1)Oc1ccc(F)cc1 (stereo unspecified) | inactive: 1.04%
CCN(CC)CCCOC(=O)C(O)(c1ccccc1)C1CCCCC1 (stereo unspecified) | inactive: -4.71%
COc1ccc(NP(C)(=O)Oc2ccccc2OC)cc1 (stereo unspecified) | inactive: -3.88%
CN(C)CCOC(=O)C(O)(c1ccccc1)C1CCCCC1 (stereo unspecified) | inactive: -0.19%
COc1ccc(OP(C)(=O)Nc2cccc(Br)c2)cc1 (stereo unspecified) | inactive: -2.51%
O=[N+]([O-])c1cc([N+](=O)[O-])c(NCC2CCS(=O)(=O)C2)c([N+](=O)[O-])c1 (stereo unspecified) | inactive: -2.67%
CCOP(C)(=S)SCC(=O)NC(C)(CC)C(=O)O (stereo unspecified) | inactive: 9.43%
CP(=O)(Nc1ccc(SC(F)(F)F)cc1)Oc1ccc(F)cc1 (stereo unspecified) | inactive: 1.35%
Cc1ccccc1NP(C)(=O)Nc1ccccc1C | inactive: 0.81%
CP(=O)(Nc1ccc2c(c1)OCCO2)Oc1ccccc1 (stereo unspecified) | inactive: 3.31%
CCc1ccc(OP(C)(=O)Nc2cccnc2)cc1 (stereo unspecified) | inactive: -0.6%
CP(=O)(Oc1ccccc1)N1CCOC1=O (stereo unspecified) | inactive: 3.38%
O=C(OCCCN1CCCC1)C(O)(c1ccccc1)C1CCCCC1 (stereo unspecified) | inactive: 0.76%
COc1ccccc1OP(C)(=O)Nc1c(C)n(C)n(-c2ccccc2)c1=O (stereo unspecified) | inactive: -2.46%
COc1ccc(OP(C)(=O)Nc2ccc(Br)cc2)cc1 (stereo unspecified) | inactive: -0.83%
CCN(CC)CC(O)COC(=O)C(O)(c1ccccc1)C1CCCCC1 (stereo unspecified) | inactive: 7.42%
CN(C)C(=O)c1c([N+](=O)[O-])cc([N+](=O)[O-])cc1[N+](=O)[O-] | inactive: 2.44%
